# Values of other authors in patent US20230312752A1 (Brown University, priority 2021, published 2023).
# Amino acid sequences for entries named in this document (tags omitted).
# UniProt P06493, whole entry, species assumed: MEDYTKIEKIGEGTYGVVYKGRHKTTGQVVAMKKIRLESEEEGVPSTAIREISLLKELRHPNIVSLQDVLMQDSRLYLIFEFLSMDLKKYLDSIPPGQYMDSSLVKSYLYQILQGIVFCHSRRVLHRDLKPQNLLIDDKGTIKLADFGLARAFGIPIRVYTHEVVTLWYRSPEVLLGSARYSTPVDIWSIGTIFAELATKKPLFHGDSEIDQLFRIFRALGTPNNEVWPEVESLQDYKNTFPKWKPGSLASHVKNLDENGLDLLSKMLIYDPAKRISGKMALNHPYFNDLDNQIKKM
# UniProt P11802, whole entry, species assumed: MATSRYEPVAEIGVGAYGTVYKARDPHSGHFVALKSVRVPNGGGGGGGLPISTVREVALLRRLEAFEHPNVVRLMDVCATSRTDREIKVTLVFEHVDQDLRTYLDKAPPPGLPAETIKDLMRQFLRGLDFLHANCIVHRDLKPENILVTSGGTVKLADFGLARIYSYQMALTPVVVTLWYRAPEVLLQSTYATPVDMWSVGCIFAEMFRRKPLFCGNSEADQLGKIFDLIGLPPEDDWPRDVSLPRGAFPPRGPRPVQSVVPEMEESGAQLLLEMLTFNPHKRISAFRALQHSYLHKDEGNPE
# How the values were obtained:
# CDK1 = CDK1 (Homo sapiens, UniProt P06493); design: key to the marks not given beside the values; settings: cited from earlier work
# CDK4 = CDK4 (Homo sapiens, UniProt P11802); design: key to the marks not given beside the values; settings: cited from earlier work
structure (smiles),measurement,setting,value
COc1ccc2c(c1)/C(=C/c1cnc[nH]1)C(=O)N2,Inhibitory potency CDK1,CDK1,+++
same,Inhibitory potency CDK4,CDK4,++
